Biological target: T1, wild-type isocitrate dehydrogenase 1 (wtIDH1) (Homo sapiens, UniProt O75874)
T1 construct: gene IDH1; human recombinant IDH1
Assay: cell-free fluorometric NADPH formation assay at […] Mg2+
Assay type: biochemical

Protein sequences, listed by entry. Tags and fused reporters are not part of them. Residues count along the entry.
UniProt O75874, 2-414: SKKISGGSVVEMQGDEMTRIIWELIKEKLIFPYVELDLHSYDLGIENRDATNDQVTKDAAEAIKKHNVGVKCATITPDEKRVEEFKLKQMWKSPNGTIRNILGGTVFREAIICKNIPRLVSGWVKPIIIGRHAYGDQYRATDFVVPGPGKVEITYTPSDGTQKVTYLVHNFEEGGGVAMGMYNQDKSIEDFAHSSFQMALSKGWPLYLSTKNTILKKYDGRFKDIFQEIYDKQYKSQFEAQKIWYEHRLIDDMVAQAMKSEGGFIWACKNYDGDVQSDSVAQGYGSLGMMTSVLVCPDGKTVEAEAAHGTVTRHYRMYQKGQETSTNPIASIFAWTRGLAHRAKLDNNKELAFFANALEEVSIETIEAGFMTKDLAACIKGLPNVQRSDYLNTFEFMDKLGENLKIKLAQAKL

- IC50: 2.07 nM
Compound: C[C@H](O)c1cccc(NC(=O)c2nn(Cc3ccc(F)cc3)c3c2CN(C(=O)c2ccc[nH]2)C[C@H]3C)c1 [GSK321]

From PMC9325670, “Limited nutrient availability in the tumor microenvironment renders pancreatic tumors sensitive to allosteric IDH1 inhibitors” (Nature Cancer, 2022)
